This assay has as its target human opioid receptor-like receptor (ORL-1) (Homo sapiens, UniProt P41146). Briefly: In vitro ORL-1 receptor binding assay ([3H]-nociceptin displacement). To be noted: read-out: Ki [Average ± Std Deviation] ORL-1; membranes from recombinant HEK-293 cells; 0.1 nM [3H]-nociceptin.

Usually Ki stands for a dissociation constant, usually derived from enzyme kinetics or from competition with a known ligand. Regarding `O=C(O)c1ccccc1N[C@H]1C[C@H]2CCC[C@@H](C1)N2[C@H]1C[C@@H]2CCC[C@@H](C2)C1`, the inhibitory constant (Ki) was found to be 439 nM.

As for `O=C(O)c1ccccc1N[C@H]1C[C@H]2CCC[C@@H](C1)N2C12CC3CC(CC(C3)C1)C2`, the Ki is greater than 20000 nM.

For the compound `O=C(O)[C@@H]1CCCN1C(=O)CN(c1ccccc1)[C@H]1C[C@H]2CCC[C@@H](C1)N2[C@H]1C[C@@H]2CCC[C@@H](C2)C1`, the inhibition constant Ki was 280 nM.

Source of the values: patent US10118927B2, “Substituted piperidin-4-amino-type compounds and uses thereof” (dated 2018).
